# Laboratory results published in PMC8515052, “PepVAE: Variational Autoencoder Framework for Antimicrobial Peptide Generation and Activity Prediction” (Frontiers in Microbiology, 2021).
# Legend:
# Conditions in all cases: broth dilution, Mueller Hinton II Broth, approx. 5×10^5 CFU/ml, 37°C 24 h, OD600, peptide 128 to 0.5 μM
# S. aureus ATCC 12600 = test system: S. aureus ATCC 12600
# E. coli K-12 = test system: E. coli K-12
# P. aeruginosa 27853 = test system: P. aeruginosa 27853
SMILES,Staphylococcus aureus experimental MIC (S. aureus ATCC 12600) [µM],Escherichia coli experimental MIC (E. coli K-12) [µM],Pseudomonas aeruginosa experimental MIC (P. aeruginosa 27853) [µM]
CC[C@H](C)[C@H](NC(=O)[C@H](CC(C)C)NC(=O)[C@@H](NC(=O)[C@H](CCCNC(=N)N)NC(=O)[C@H](CCCCN)NC(=O)[C@H](CCCNC(=N)N)NC(=O)[C@H](CCCCN)NC(=O)[C@H](CCCNC(=N)N)NC(=O)[C@H](CCCCN)NC(=O)[C@H](CCCNC(=N)N)NC(=O)[C@H](CCCCN)NC(=O)[C@H](CC(C)C)NC(=O)[C@@H](NC(=O)[C@@H](N)CC(C)C)[C@@H](C)CC)[C@@H](C)CC)C(=O)O [p6],>128,64,128
CC[C@H](C)[C@H](NC(=O)[C@H](CC(C)C)NC(=O)[C@@H]1CCCN1C(=O)[C@H](CCCCN)NC(=O)[C@H](C)NC(=O)[C@@H](NC(=O)[C@@H](NC(=O)[C@@H](NC(=O)[C@@H](NC(=O)[C@H](CCCCN)NC(=O)[C@H](CCCCN)NC(=O)[C@H](C)NC(=O)[C@H](C)NC(=O)[C@H](CO)NC(=O)[C@@H](NC(=O)[C@H](CC(C)C)NC(=O)[C@H](CCCCN)NC(=O)[C@H](CCCCN)NC(=O)[C@@H](NC(=O)[C@H](Cc1ccccc1)NC(=O)[C@H](CO)NC(=O)[C@H](CCCCN)NC(=O)[C@H](Cc1c[nH]c2ccccc12)NC(=O)[C@@H](N)CCCCN)[C@@H](C)CC)[C@@H](C)O)C(C)C)C(C)C)[C@@H](C)O)[C@@H](C)O)C(=O)N[C@@H](CO)C(=O)N[C@@H](CO)C(=O)O [p26],>128,4,4
CC[C@H](C)[C@H](NC(=O)[C@H](Cc1ccccc1)NC(=O)[C@H](CC(C)C)NC(=O)[C@H](CCCNC(=N)N)NC(=O)[C@@H](NC(=O)[C@H](CCCCN)NC(=O)[C@@H](NC(=O)[C@H](CC(C)C)NC(=O)[C@@H](N)C(C)C)[C@@H](C)CC)[C@@H](C)O)C(=O)N[C@@H](CCCCN)C(=O)N[C@@H](CCCNC(=N)N)C(=O)N[C@@H](CCCCN)C(=O)O [p2],>128,64,8
